# Results published in PMC6424229, “^68Ga-FAPI PET/CT: Biodistribution and Preliminary Dosimetry Estimate of 2 DOTA-Containing FAP-Targeting Agents in Patients with Various Cancers” (Journal of Nuclear Medicine, 2019).
# Experiments:
# [1] = in vivo
# [2] = in vivo; cited from earlier work
# tumor lesions = conditions: in vivo
substance,measurement,setting,value
^18F-FDG,"Background uptake in brain, average SUVmax",[1],11.01
same,"Background uptake in liver, average SUVmax",[1],2.77
same,"Background uptake in oral/pharyngeal mucosa, average SUVmax",[1]; po,4.88
same,Effective dose,[2],2 mSv/100 MBq
same,"Tumor uptake, average SUVmax",tumor lesions,7.41
